Data published in patent US9062320B2, “Biological systems input-output response system and plant sentinels” (dated 2015).

How the values were obtained:
[1] = tested on: degreened transgenic Arabidopsis plants; experiment: Regreening of degreened plants; details: 1 μM t-zeatin for 6 hours after degreening
PlantPho promoter = experiment: Cytokinin-dependent GUS expression via PhoB:VP64 and PlantPho promoter; details: 0.5 μM t-zeatin, approximately 16 h

Question: With t-zeatin as the substance, how does the “effect on regreening process” value [1] read?
Answer: enhanced the process

Question: And the “Cytokinin-dependent induction of GUS expression” value (PlantPho promoter)?
Answer: up to 7.8 fold
